Binding of CDR-mutated scFvs to a peptide of the spike HR2 region

Reference: Li et al. 2023, doi:10.1038/s41467-023-39022-2. File: FLAb, binding data.

Binding partner: SARS-CoV-2 spike HR2 peptide, sequence PDVDLGDISGINAS.

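The parent was found by panning a naive human phage display library on the peptide. These sequences belong to a second round, designed from the earlier measurements on random variants of the parent. Their group label is 14L_GP_Gibbs (GP: Gaussian process model; Gibbs: Gibbs sampling; a sequence that several methods proposed may carry one label only). Affinity was read by AlphaSeq, a pooled yeast mating assay with surface-displayed partners. Pairs that bind mate more often; barcode pairs of the diploids are counted by sequencing. The ratio of observed to expected reads was calibrated, replicate by replicate, on BCL2-family standards whose Kd was known from biolayer interferometry. Mating was done six times.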

Ab-14 is the parent antibody, in scFv form: VH, then three GGGGS repeats, then VL. The heavy chain is unchanged in all variants.
VH: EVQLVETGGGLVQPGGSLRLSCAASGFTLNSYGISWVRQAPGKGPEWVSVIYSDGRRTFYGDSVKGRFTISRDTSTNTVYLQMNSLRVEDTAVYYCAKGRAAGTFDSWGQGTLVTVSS
VL: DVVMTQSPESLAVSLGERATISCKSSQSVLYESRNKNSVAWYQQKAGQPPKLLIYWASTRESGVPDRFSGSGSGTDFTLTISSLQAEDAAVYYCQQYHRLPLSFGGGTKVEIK

Each variant is given by its three light chain CDRs, as the data file delimits them; those of the parent are KSSQSVLYESRNKNSVA, WASTRES, QQYHRLPLS. Numbers give log10(Kd / nM), so 0 is 1 nM and 3 is 1 µM. Smaller is tighter. An entry "nd" has no value in the source: the pair was not observed among the diploids in that replicate. This suggests poor binding but is not conclusive. The range of this assay differs from that of the first round, and the authors advise against merging the two. The authors' rule: three or more of the six replicates give a measured affinity, fewer mean a poor binder. Of ten entries with the parent sequence, four were seen in most replicates (averages 0.34 to 2.37), three in one and three in none, so single entries are noisy. Empty control strains, which show no peptide, gave a signal in 4% of pairings with all light chain designs; the median was 2.64 and 95% of these signals were weaker than 1.59. No background was subtracted. For each scFv, signals with the empty controls are counted beside the result.

For KFFQSWLYEQRNVNSVA, NASQRLD, QQYHRLPLS, the assay gave 0.23, 0.01, 0.06, 0.07, 0.11, 0.24 (controls 1 of 18).
For KLSQSVLYQMGMKNSVA, QAVTRMS, QQYHRLPLS, the assay gave 0.34, 0.65, 0.45, 0.36, 0.50, 0.62 (controls 0 of 18).
For KLSQSVEVLDRNKNSVA, NASTREM, QQYHRLPLS, the assay gave 0.33, 0.64, 0.49, 0.48, 0.41, 0.67 (controls 0 of 18).
For KLYTSVMLESRNVNSVA, SASQREE, QQYHRLPLS, the assay gave 0.16, -0.02, 0.03, -0.25, -0.11, 0.10 (controls 1 of 18).
For KVSQSWLYEQRMKQSVA, NASERES, QQYHRLPLS, the assay gave 0.02, -0.15, 0.02, 0.03, 0.15, 0.03 (controls 2 of 18).
For KLSNSYEYQSRNMNSVA, NASTRLE, QQYHRLPLS, the assay gave 0.64, 0.31, 0.57, 0.27, 0.30, 0.31 (controls 2 of 18).
For KFQQQDEYESRNKNSVA, NASTRSQ, QQYHRLPLS, the assay gave 0.20, 0.21, 0.02, -0.07, -0.08, 0.32 (controls 2 of 18).
For KLSMSWPMLWRNHNSVA, SASTRES, QQYHRLPLS, the assay gave 0.62, 0.64, 0.21, 0.37, 0.32, 0.62 (controls 2 of 18).
For KLDGSCQYESRTKNSVA, DASTRES, QQYHRLPLS, the assay gave 0.10, -0.08, -0.12, -0.09, -0.18, -0.15 (controls 2 of 18).
For KLYQSNGYESRNDNNVA, NASLRES, QQYHRLPLS, the assay gave 0.98, 0.73, 0.57, 0.20, 0.62, 1.08 (controls 2 of 18).
For KLSQSTLYEQRMCNSVA, NASQRES, QQYHRLPLS, the assay gave 0.31, 0.33, -0.11, -0.20, 0.06, 0.07 (controls 2 of 18).
For KLSQSELYESRVKNNVA, AASQRES, QQYHRLPLS, the assay gave 1.17, 0.62, 0.37, 0.66, 0.24, 0.62 (controls 1 of 18).
For KLMQLVLYESRNKNSVA, NASYREQ, QQYHRLPLS, the assay gave 0.30, -0.16, 0.32, 0.89, 0.38, 0.32 (controls 2 of 18).
For KLSGEMEYESRNKNSVA, HASERES, QDYHRLPLQ, the assay gave -0.15, -0.13, -0.59, -0.51, -0.52, -0.26 (controls 0 of 18).
For KQSWSEDYGSRNKNSVA, DASQRES, QQYHRLPLS, the assay gave -0.20, -0.42, -0.43, -0.68, -0.52, -0.45 (controls 0 of 18).
For KMSMSVLYEDRHQNSVA, NASQRLD, QQYHRLPLS, the assay gave 0.49, 0.54, 0.05, -0.23, 0.50, 0.38 (controls 0 of 18).
For KLQMSVDQLERNDNSVA, WASHRES, QQYHRLPLS, the assay gave nd, nd, 2.11, 1.83, 1.23, nd (controls 1 of 18).
For KSSGSVLYEDKNVNSVA, NASQRLM, QQYHRLPLS, the assay gave 0.88, 0.32, 0.55, 0.55, 0.33, 0.69 (controls 0 of 18).
For KLDPSDLGESRNKNSVA, QASQREI, QQYHRLPLS, the assay gave 0.21, 0.05, 0.04, -0.02, 0.17, 0.12 (controls 1 of 18).
For KLQQFYEGESRNKNSVA, HASTRRS, QQYHRLPLS, the assay gave 1.33, 0.50, 1.07, 0.99, 1.34, 0.85 (controls 2 of 18).
For KSSQQVLMESRNMNSVA, NASTREE, QQYHRLPLS, the assay gave -0.39, -0.35, -0.60, -0.58, -0.54, -0.45 (controls 0 of 18).
For KLQQSVLYSSRNKNSVA, NASTRED, QQYHRLPLS, the assay gave -0.04, 0.09, -0.12, -0.25, -0.06, -0.01 (controls 2 of 18).
For KQQQSELGLSRNMNSVA, HASTRES, QQYHRLPLS, the assay gave 0.25, 0.08, -0.33, 0.02, -0.03, 0.38 (controls 1 of 18).
For KLQQADLYESRNANSVA, QASQRES, QCYHRLPLS, the assay gave 0.78, 0.94, 0.76, 0.73, 0.53, 1.15 (controls 1 of 18).
For KVSQSELYESRQFNSVA, HASQREL, QQYHRLPLS, the assay gave 0.35, 0.42, 0.52, 0.13, 0.31, 0.37 (controls 1 of 18).
For KISQSALMEPRNSNSVA, NASTRQM, QQYHRLPLS, the assay gave -0.06, -0.15, -0.44, -0.26, -0.36, -0.17 (controls 1 of 18).
For KISQSELEESRNKNSVA, WASVREA, QQYHRLPLS, the assay gave 0.03, -0.05, -0.11, -0.27, -0.04, -0.02 (controls 0 of 18).
For KLSPSEQYESRNKNSVA, HASLRES, QQYHRLPLS, the assay gave 0.32, 0.03, 0.10, -0.30, 0.06, 0.12 (controls 3 of 18).
For WLSMSVMQESRNKNAVA, SASTREL, QQYHRLPLS, the assay gave 0.79, 0.57, 0.57, 0.46, 0.53, 0.53 (controls 1 of 18).
For KVSQSQDYESRNKNSVA, QASQREQ, QQYHRLPLY, the assay gave 0.18, 0.10, -0.02, -0.03, 0.35, 0.29 (controls 1 of 18).
For KLPNSKLYESRNKNQVA, SASTREM, QQYHRLPLS, the assay gave 0.80, 0.44, 0.36, 0.60, 0.48, 0.69 (controls 3 of 18).
For KLSASQLYESRASNAVA, NASTRMM, QQYHRLPLS, the assay gave 0.38, 0.16, 0.20, 0.55, 0.78, 0.18 (controls 0 of 18).

A selection of 5 entries from above:

The variant KLYTSVMLESRNVNSVA, SASQREE, QQYHRLPLS gave 0.16, -0.02, 0.03, -0.25, -0.11, 0.10 (controls 1 of 18).
The variant KLSPSEQYESRNKNSVA, HASLRES, QQYHRLPLS gave 0.32, 0.03, 0.10, -0.30, 0.06, 0.12 (controls 3 of 18).
The variant KLSASQLYESRASNAVA, NASTRMM, QQYHRLPLS gave 0.38, 0.16, 0.20, 0.55, 0.78, 0.18 (controls 0 of 18).
The variant KLSQSVLYQMGMKNSVA, QAVTRMS, QQYHRLPLS gave 0.34, 0.65, 0.45, 0.36, 0.50, 0.62 (controls 0 of 18).
The variant KMSMSVLYEDRHQNSVA, NASQRLD, QQYHRLPLS gave 0.49, 0.54, 0.05, -0.23, 0.50, 0.38 (controls 0 of 18).